Laboratory results: patent US20040204455A1, “Piperidine derivative rennin inhibitors” (priority 2003, published 2004)

By UniProt entry, the sequences of proteins in these tests, tags left out. Residues count along the entry.
UniProt P00797, 67-406 limits assumed: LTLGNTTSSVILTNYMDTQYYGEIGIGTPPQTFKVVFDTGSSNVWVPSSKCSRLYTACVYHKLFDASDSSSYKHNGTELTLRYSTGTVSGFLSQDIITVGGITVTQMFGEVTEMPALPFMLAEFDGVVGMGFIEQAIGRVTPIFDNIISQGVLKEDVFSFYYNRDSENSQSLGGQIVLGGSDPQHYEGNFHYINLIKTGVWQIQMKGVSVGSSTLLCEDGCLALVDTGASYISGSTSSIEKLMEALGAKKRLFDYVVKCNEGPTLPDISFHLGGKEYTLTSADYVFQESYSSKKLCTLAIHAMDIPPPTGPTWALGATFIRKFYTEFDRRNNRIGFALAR

Molecular target: human renin (Homo sapiens, UniProt P00797)
Assay: Determination of Renin IC50 by tGFP FRET Assay
Conditions: Human recombinant renin, tandem GFP substrate 650 nM, renin and compound incubated 60 minutes before substrate, pH 7.4, tested form: HCl

IC50: 400 nM
Compound: Fc1ccccc1COCCCOc1ccc([C@@H]2CCNC[C@@H]2NCc2ccc3cccnc3c2)cc1 (relative stereo)
